Measured values taken from US12274731B1, “Polybasic antimalarial agents and methods of use thereof” (priority 2018, dated 2025).

Assay: in vivo
Details: rat

SMILES: NCCCC[C@H](NC(=O)[C@H](CCCCN)NC(=O)[C@H](CCCCN)NC(=O)[C@H](CCCCN)NC(=O)[C@H](CCCCN)NC(=O)[C@H](CCCCN)NC(=O)[C@H](CCCCN)NC(=O)[C@H](CCCCN)NC(=O)[C@H](CCCCN)NC(=O)[C@H](CCCCN)NC(=O)[C@H](CCCCN)NC(=O)[C@H](CCCCN)NC(=O)[C@H](CCCCN)NC(=O)[C@H](CCCCN)NC(=O)[C@H](CCCCN)NC(=O)[C@H](CCCCN)NC(=O)[C@H](CCCCN)NC(=O)[C@H](CCCCN)NC(=O)[C@H](CCCCN)NC(=O)[C@H](CCCCN)NC(=O)[C@H](CCCCN)NC(=O)[C@H](CCCCN)NC(=O)[C@H](CCCCN)NC(=O)[C@H](CCCCN)NC(=O)[C@H](CCCCN)NC(=O)[C@H](CCCCN)NC(=O)[C@H](CCCCN)NC(=O)[C@H](CCCCN)NC(=O)[C@H](CCCCN)NC(=O)[C@H](CCCCN)NC(=O)[C@H](CCCCN)NC(=O)[C@H](CCCCN)NC(=O)[C@H](CCCCN)NC(=O)[C@H](CCCCN)NC(=O)[C@H](CCCCN)NC(=O)[C@H](CCCCN)NC(=O)[C@H](CCCCN)NC(=O)[C@H](CCCCN)NC(=O)[C@H](CCCCN)NC(=O)[C@H](CCCCN)NC(=O)[C@H](CCCCN)NC(=O)[C@H](CCCCN)NC(=O)[C@H](CCCCN)NC(=O)[C@H](CCCCN)NC(=O)[C@H](CCCCN)NC(=O)[C@H](CCCCN)NC(=O)[C@H](CCCCN)NC(=O)[C@H](CCCCN)NC(=O)[C@H](CCCCN)NC(=O)[C@@H](N)CCCCN)C(=O)O
- half-life: 30 min
